The results in this text go back to PubChem BioAssay AID488922 (Johns Hopkins Ion Channel Center, 2010).

By UniProt entry, the sequences of proteins in these tests, tags left out. Where a name states a change or a piece, a line headed by the entry shows the natural chain unless it says otherwise.
UniProt Q9NPC2: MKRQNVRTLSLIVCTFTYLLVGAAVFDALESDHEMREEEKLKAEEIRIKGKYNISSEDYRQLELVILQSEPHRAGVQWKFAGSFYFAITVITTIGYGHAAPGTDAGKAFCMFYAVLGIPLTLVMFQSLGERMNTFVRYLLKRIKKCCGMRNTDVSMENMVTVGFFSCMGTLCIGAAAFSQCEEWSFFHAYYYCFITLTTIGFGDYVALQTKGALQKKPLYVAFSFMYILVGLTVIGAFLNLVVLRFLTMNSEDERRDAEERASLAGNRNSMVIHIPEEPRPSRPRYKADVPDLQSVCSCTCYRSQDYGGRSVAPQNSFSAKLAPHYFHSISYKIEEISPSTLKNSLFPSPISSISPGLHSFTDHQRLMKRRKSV

Only a part is listed here, and it is no random draw. Active and inactive are the calls of the source.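 Rule for the calls: active = ratio B-score over 3 SD below the library mean, with starting fluorescence within 5 SD of its mean; inactive = the rest, inconclusive results apart.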

The assay concerns the target Potassium channel subfamily K member 9 (Homo sapiens) (UniProt Q9NPC2). The assay can be described thus: KCNK9 potassium channel inhibitors, primary screen, HEK293 cells, thallium flux (AID 488922).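 Note: negative B-score means less thallium flux so channel inhibition.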 As to conditions: HEK293 KCNK9, FluxOR thallium flux fluorescence; at 10 µM; hits give low values.
`O=P(Nc1nccs1)(c1ccccc1)c1nc2ccccc2s1` (stereo unspecified): the B-score is active: -12.8.
